Test results as given in patent US9603922B2, “Modulation of NKT cell activity with antigen-loaded CD1d molecules” (VACCINEX, INC., priority 2007, dated 2017).

Test system: B16-HER2 cells
Test: Precoating experiment, lung metastases of B16-HER2 cells
Type: in vivo, mouse
Conditions: cells pre-incubated with agent, injected i.v. into naïve mice
Protocol: FIG. 5: Precoating experiment. B16-HER2 (a) and B16 wild type (B16 wt) cells (b) were precoated for 1 hour with 0.4 μg/ml αGalCer, 40 μg/ml αGalCer/CD1d-Her2 Fusion protein (Fusion), 10 μg/ml HERCEPTIN®, or 20 μg/ml αGalCer/sCD1d (sCD1d) and, with or without a previous wash, cells were injected i.v. Lung metastases were analyzed 3 weeks after graft with the ImageJ k-means clustering program and results are expressed as percentage of black metastatic surface over total lung surface. *P<0.005 compared to PBS control.
Quantification of lung metastasis. Metastatic nodule surface area was measured on 2560×1920 pixels photographs of the whole organs, taken on an Zeiss STEMI SV11 dissection microscope (Carl Zeiss, Jena, Germany) equipped with a PROGRES-C10plus Color Camera (Jenoptik, Jena, Germany). Each image was analyzed with the ImageJ program (rsb.info.nih.gov/ij/) using a k-means clustering algorithm (plugin available on ij-plugins.sourceforge.net). Images were segmented into 9 segments cluster tolerance 1×10−4, randomization seed: 48) and the appropriate segments were selected based on the color of the metastasis reaching the surface of the organ. The area of the sum of selected color segments was expressed as percentage of the area occupied by the lungs. Both sides of the lung were analyzed. This method takes into account both the number and the size of the tumor nodules. […]

HERCEPTIN: humanized anti-HER2 monoclonal antibody (Hoffmann-La-Roche)
Lung metastases of precoated B16-HER2 cells: unable to inhibit lung metastases
